{
  "source": "paper PMC3397136",
  "about": "(Amino Acids, 2011)",
  "origin": "cited, not measured here",
  "biological_target": "T1, human oxytocin receptor (Homo sapiens, UniProt P30559)",
  "T1 sequence (P30559 1-389)": "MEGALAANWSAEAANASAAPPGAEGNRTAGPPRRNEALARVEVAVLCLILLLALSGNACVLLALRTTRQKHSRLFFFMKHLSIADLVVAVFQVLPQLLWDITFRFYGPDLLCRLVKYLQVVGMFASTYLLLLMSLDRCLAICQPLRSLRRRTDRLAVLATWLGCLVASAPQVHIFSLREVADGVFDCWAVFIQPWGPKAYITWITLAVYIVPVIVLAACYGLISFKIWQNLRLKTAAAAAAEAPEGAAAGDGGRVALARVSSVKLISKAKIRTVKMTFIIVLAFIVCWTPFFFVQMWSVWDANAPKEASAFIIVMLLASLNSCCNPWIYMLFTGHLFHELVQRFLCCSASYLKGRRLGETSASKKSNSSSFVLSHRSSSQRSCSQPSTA",
  "settings": "HEK cells, ref Reversi et al. (2005); cited from earlier work",
  "data": [
    {"substance": "d[D-Tyr(Et)^2,Thr^4]OVT [Atosiban]", "values": [
      {"measurement": "Ki", "value": "71.5 ± 21.2", "unit": "nM"}
    ]}
  ]
}
